Protein sequences, listed by entry. Tags and fused reporters are not part of them.
Guanine nucleotide-binding protein G(i) subunit alpha-3 (Rattus norvegicus), P08753, UniProt P08753, whole entry, looked up: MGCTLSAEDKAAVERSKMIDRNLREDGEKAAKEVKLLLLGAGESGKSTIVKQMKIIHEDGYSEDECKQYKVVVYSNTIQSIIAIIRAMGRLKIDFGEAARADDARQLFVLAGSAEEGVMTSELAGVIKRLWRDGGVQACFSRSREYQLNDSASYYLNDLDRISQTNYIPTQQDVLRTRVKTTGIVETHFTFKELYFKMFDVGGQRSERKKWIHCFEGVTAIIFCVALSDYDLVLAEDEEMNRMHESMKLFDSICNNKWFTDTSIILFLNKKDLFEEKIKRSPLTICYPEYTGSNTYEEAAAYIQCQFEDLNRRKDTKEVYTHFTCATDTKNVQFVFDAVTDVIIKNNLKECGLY

# Source: PubChem
# Only a selection was taken, and hits are over-represented in it overall.
# GIV Gai3 FP = inhibitors of GIV peptide binding to Galpha-i3, primary screen, biochemical, fluorescence polarization, FITC-GIV GBA peptide, rat Galphai3. Guanine nucleotide-binding protein G(i) subunit alpha-3 (Rattus norvegicus), P08753. 90 min; stronger effect = lower value; scaled: aluminum fluoride 0%, vehicle 100%. percent of control (FP), % (test concentration not listed). hit rate 0.42% among 210,000. AID 1224905, 2016;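 active = replicate mean at 85% of control or lower, very high polarization wells dropped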;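 note: wells of about 15 µL received 100 nL stock; the first replicate is given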
# GIV Gai FP conf = confirmation of inhibitors of GIV binding to rat Galpha-i3; shares compounds with GIV Gai3 FP; FITC-GIV peptide binding to Galphai3, fluorescence polarization; stronger effect = lower value; fluorescence polarization, mP at 100 µM; 38% of 580 active; AID 1259350;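 active = inhibition score of 15 or more, meaning 100 minus mean polarization as percent of control over three replicates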
# GIV-Gai AS conf = confirmation of inhibitors of GIV binding to human Galpha-i3 | AlphaScreen Galphai3-GIV binding, purified proteins, 90 min; stronger effect = lower value | 39% of 580 active | AlphaScreen counts at 100 µM | shares compounds with GIV Gai3 FP;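 active = inhibition score at or above a set limit, where the score is 100 minus the three-replicate mean percent of control signal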
# The depositor's hits bear a star.
# Preview (three entries):
SMILES,GIV Gai3 FP,others
Fc1ccc(CN2CCc3nc(N4CCN(c5ccccc5F)CC4)ncc3C2)c(F)c1,104.5,
Cc1cc(Cl)ccc1NCC(=O)N/N=C/c1ccc2c(c1)OCO2,96.6,
O=C(/C=C/Sc1nc2cc(Cl)c(F)cc2[nH]1)c1ccccc1,104.2,

# All compounds of this part, repeating the preview:
SMILES,GIV Gai3 FP,others
Fc1ccc(CN2CCc3nc(N4CCN(c5ccccc5F)CC4)ncc3C2)c(F)c1,104.5,
Cc1cc(Cl)ccc1NCC(=O)N/N=C/c1ccc2c(c1)OCO2,96.6,
O=C(/C=C/Sc1nc2cc(Cl)c(F)cc2[nH]1)c1ccccc1,104.2,
Cc1ccc2nc(SC(C)C(=O)O)[nH]c2c1 (configuration not stated),102.4,
Cc1ccc2nc(S/C=C/C(=O)c3ccccc3)[nH]c2c1,89.4,GIV Gai FP conf=62.5;GIV-Gai AS conf=38936
O=S(=O)(c1ccc2c(c1)OCCO2)N1CCn2cccc2C1c1ccccc1 (configuration not stated),104.2,
Cc1nn(-c2cc(N3CCCCC3)ncn2)c(C)c1CCC(=O)NCCC1=CCCCC1,102.6,
Cc1nc2cc3c(cc2n1C)OCCO3,106.0,
CCc1nn(-c2ccccc2)c2nc(-c3ccccc3)nc(SCC(=O)NC(C)(C)C)c12,98.3,
Cn1c(=O)cc2c3c(c(Nc4cccc(Cl)c4)ccc31)C(=O)c1ccccc1-2,105.2,
Cn1c(=O)cc2c3c(c(Nc4ccccc4)ccc31)C(=O)c1ccccc1-2,100.8,
CC(=O)Nc1ccc2c3c(cc(=O)n2C)-c2ccccc2C(=O)c13,84.6*,GIV Gai FP conf=68.8;GIV-Gai AS conf=46281
COCCCNC(=O)c1nnc(-c2oc3ccccc3c2C)o1,109.4,
Cc1c(C)c(C)c(C(O)c2ccccc2)c(C)c1C (configuration not stated),102.0,
O=C(CSc1nc2cc(C(=O)NCC3CCCO3)ccc2c(=O)n1Cc1ccco1)c1ccc(Br)cc1 (configuration not stated),106.6,
COc1ccc(/C=C2\SC(=O)NC2=S)cc1OC,136.0,
Cc1ccc(/C=C2/SC(=O)NC2=S)o1,79.8*,GIV Gai FP conf=56.8*;GIV-Gai AS conf=2262*
Cn1cc(/C=C2\SC(=O)NC2=S)c2ccccc21,110.7,
CC1CCN(C(=O)c2ccccc2NC(=O)c2cccnc2)CC1,102.6,
COc1ccc(C(=O)Oc2cccc(NC3=NS(=O)(=O)c4ccccc43)c2)cc1OC,98.4,
O=C1/C(=C\c2ccco2)SC(=S)N1Cc1ccccc1,101.1,
O=C(O)CC(C(=O)O)N1C(=O)/C(=C\c2ccco2)SC1=S (configuration not stated),85.9,GIV Gai FP conf=53.3*;GIV-Gai AS conf=3647*
O=C(O)C(Cc1ccccc1)N1C(=O)/C(=C\c2ccco2)SC1=S (configuration not stated),90.7,
Cc1c(C(=O)Nc2ccc(F)cc2)sc2nc3n(c(=O)c12)CCCCC3,107.5,
COc1cccc(-c2nn3c(-c4cc(C(C)C)[nH]n4)nnc3s2)c1OC,105.9,
# Following part
SMILES,GIV Gai3 FP,others
CC(C)c1cc(-c2nnc3sc(-c4ccncc4)nn23)n[nH]1,85.2*,GIV Gai FP conf=63.1;GIV-Gai AS conf=12549*
COc1ccccc1-c1nn2c(-c3cc(C(C)C)[nH]n3)nnc2s1,102.4,
O=C(CSCc1ccco1)CN1CCc2ccccc21,97.9,
COc1ccccc1OCC(=O)NCC(c1ccccc1Cl)c1c[nH]c2ccccc12 (configuration not stated),104.2,
O=C1c2ccccc2C(=O)N1N1C(=O)c2ccccc2C1=O,102.4,
O=c1c2ccccc2c2nc3c(=O)c4ccccc4c3nc12,103.2,
O=c1c(=NO)c(=O)c2ccccc12,54.6*,GIV Gai FP conf=46.7*;GIV-Gai AS conf=13907*
CCc1ccc(C(=O)N2CCN(Cc3nc4cc(C(=O)N5CCCC5)ccc4n3C)CC2)cc1,103.4,
O=C(CCn1c(=O)sc2cc(S(=O)(=O)N3CCc4ccccc43)ccc21)N1CCCC1,107.7,
N#CC1=C(N)OC2=C(C(=O)CCC2)C12C(=O)N(CC(N)=O)c1ccccc12 (configuration not stated),99.9,
N#CC1=C(N)OC2=C(C(=O)CCC2)C12C(=O)Nc1ccccc12 (configuration not stated),100.3,
O=C1CCCC2=C1C1(O)C(=O)c3ccccc3C1(O)O2 (configuration not stated),58.6*,GIV Gai FP conf=53.7*;GIV-Gai AS conf=53411
Cc1ccc(N2C(=O)SC(N(CC(=O)O)c3ccccc3)C2=O)cc1 (configuration not stated),101.7,
COc1ccccc1-c1csc(-c2nnn(-c3ccccc3)c2N)n1,116.7,
CCn1nc(C)c(CCN(C)C(=O)Nc2ccc3c(c2)OCO3)c1C,103.3,
CCCCSc1nnc2c(n1)OC(c1cc3c(cc1Br)OCO3)Nc1ccccc1-2 (configuration not stated),99.3,
CCCCSc1nnc2c(n1)OC(c1ccc(Br)s1)Nc1ccccc1-2 (configuration not stated),40.3*,GIV Gai FP conf=89.3;GIV-Gai AS conf=19457
CCCCSc1nnc2c(n1)OC(c1cccs1)Nc1ccccc1-2 (configuration not stated),107.7,
CCOP(=O)(OCC)c1nc(-c2ccc(Cl)cc2)oc1NC,111.6,
O=C1NC(=O)c2cccc3cccc1c23,104.5,

# 2 entries picked at random from the list so far:
SMILES,GIV Gai3 FP,others
O=C(CCn1c(=O)sc2cc(S(=O)(=O)N3CCc4ccccc43)ccc21)N1CCCC1,107.7,
CCOP(=O)(OCC)c1nc(-c2ccc(Cl)cc2)oc1NC,111.6,
